## Binding of CDR-mutated scFvs to a peptide of the spike HR2 region

Values reported by Li et al. 2023, doi:10.1038/s41467-023-39022-2 (FLAb copy).

Target: peptide PDVDLGDISGINAS, taken from heptad repeat 2 (HR2) of SARS-CoV-2 spike.

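Phage display of a naive human antibody library on the peptide gave the parent. These sequences belong to a second round, designed from the earlier measurements on random variants of the parent. Their group label is 14H_GP_Gen (GP: Gaussian process model; Gen: genetic algorithm; a sequence that several methods proposed may carry one label only). The assay is AlphaSeq: two haploid yeast populations carry antibody and antigen on their surface. The frequency of each diploid, read from paired DNA barcodes, reflects how well the two displayed proteins bind. Read counts were normalised to the haploid input and turned into Kd by a linear fit to BCL2-family pairs of known affinity, for each replicate. Each pool was mated in six replicate cultures.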

Ab-14 is the parent antibody, in scFv form: VH, then a (GGGGS)3 linker, then VL. The light chain is unchanged in all variants.
VH: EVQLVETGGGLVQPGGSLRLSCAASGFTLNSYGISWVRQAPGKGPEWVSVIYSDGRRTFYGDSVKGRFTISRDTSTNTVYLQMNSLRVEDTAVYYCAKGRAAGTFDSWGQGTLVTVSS
VL: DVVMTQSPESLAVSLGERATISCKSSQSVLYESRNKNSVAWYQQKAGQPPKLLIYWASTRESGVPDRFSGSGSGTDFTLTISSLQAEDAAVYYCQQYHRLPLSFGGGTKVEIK

Variants are written as CDR1, CDR2 and CDR3 of the heavy chain (limits as in the source). Parent: GFTLNSYGIS, VIYSDGRRTFYGDSVK, GRAAGTFDS. Numbers give log10(Kd / nM), so 0 is 1 nM and 3 is 1 µM. Smaller is tighter. Averages over replicates are reported, and they cover detected replicates only. A pair that was not seen in that replicate is written "nd"; this usually means weak binding, but a binder can also be missed. The authors averaged sequences with at least three values out of six and counted those with two or fewer as poor binders. The parent sequence was in this pool as ten entries: three were never detected, three once, and four in most replicates, with averages from 0.34 to 2.37. Values of this round are not directly comparable with the first-round values of the same sequences. As a blank, each scFv also met three strains without target: over all heavy chain designs, 1% of these pairings were detected, typically at 2.08 and seldom below 0.84. The control count says in how many pairings with the empty strains this scFv gave a signal, with their mean in brackets.

CDR-H1	CDR-H2	CDR-H3	log10 Kd, replicates	log10 Kd (nM), mean	signal with controls
GFELNMYGIS	VIYSDGRRTFYGDSVK	GQAAGTFDL	1.92 / 1.28 / 0.95 / 1.58 / 1.05 / 1.34	1.35	0/18
GFELNSYGIS	VIYSDGRRTFYGDAVK	GKTAGTFDS	0.67 / 0.92 / 1.07 / 0.87 / 0.67 / 0.76	0.83	0/18
GFELNSYGIS	VIYSDGRRTFYSDSVK	GSTAGTFDS	1.16 / 1.57 / 0.87 / 0.62 / 0.99 / 1.05	1.05	1/18 (2.21)
GFDLNSYGIS	VIYSDGRRTFYGDQVK	GNTAGTFDS	-0.11 / -0.23 / 0.05 / 0.11 / 0.02 / -0.10	-0.04	1/18 (2.35)
GFDLNSYGIS	VIYSDGRRTFYVDSVK	GWAAGTFDS	2.60 / 0.82 / 0.67 / 0.94 / 0.67 / 1.40	1.18	0/18
GFDLNSYGIS	VIYSDGRRTFYCDSVK	GRNAGTFDS	0.66 / 1.26 / 0.84 / 0.69 / 0.97 / 0.90	0.89	1/18 (3.34)
GFDLNSYGIS	VIYSDGRRTFYSDQVK	GNAAGTFDS	1.12 / 0.68 / 0.46 / 1.08 / 0.34 / 1.58	0.88	0/18
GFSLNEYGIS	VIYSDGQRTFYGDSVK	GRTAGTFDS	-0.50 / -0.45 / -0.36 / -0.04 / 0.07 / -0.16	-0.24	0/18
GFELNSYGIS	VIYSDGKRTFYIDSVK	GQAAGTFDS	0.60 / 1.40 / 0.68 / 0.88 / 2.36 / 0.48	1.07	0/18
GFDLNSYGIS	VIYSDGRRTFYVDSVK	GRTAGTFDF	0.58 / 0.55 / 0.80 / 0.72 / 1.21 / 0.46	0.72	0/18
GFDLNSYGIS	VIYSDGRRTFYADSVK	GKAAGTFDA	-0.12 / -0.18 / -0.57 / -0.47 / -0.01 / -0.47	-0.30	1/18 (1.47)
KFDLNSYGIS	VIYSDGRRTFYQDSVK	GQAAGTFDS	nd / nd / 1.22 / nd / nd / nd	1.22	0/18
GFELNSYGIS	VIYADGRRTFYGDSVK	GRAAGTFDD	-0.08 / -0.50 / 0.03 / -0.43 / -0.27 / -0.19	-0.24	0/18
GFKLNSYGIS	VIYSDGRRTFYADSVK	GRNAGTFDS	1.38 / 1.96 / 2.43 / nd / 1.47 / 1.95	1.84	0/18
GFELNEYGIS	VIYSDGRRTFYGDSVK	GRVAGTFDS	0.06 / -0.25 / -0.16 / -0.23 / -0.16 / -0.24	-0.17	0/18
GFDLNSYGIS	VIYSDGRRTFYADMVK	GREAGTFDS	0.00 / -0.11 / -0.11 / -0.15 / -0.12 / 0.21	-0.05	0/18
GFSLNSYGIS	VIYSDGRRTFYGDQVK	GMTAGTFDS	-0.40 / -0.56 / -0.95 / -0.75 / -0.81 / 0.00	-0.58	0/18
GFDLNSYGIS	VIYSDGRRTFYGDSVK	GWTAGTFDA	0.18 / 0.16 / 0.16 / 0.24 / -0.31 / -0.01	0.07	0/18
GFTLESYGIS	VIYSDGRRTFYGDSVK	GRQAGTFDS	1.52 / 2.79 / nd / 2.33 / nd / 2.23	2.22	0/18
GFELNSYGIS	VIYSDGRRTFYADMVK	GEAAGTFDS	1.37 / 1.44 / 1.49 / 2.08 / 1.58 / 2.36	1.72	0/18
GFDLNSYGIS	VIYSDGRRTFYVDSVK	GQAAGTFDT	0.50 / 0.45 / -0.17 / 0.28 / -0.04 / 0.19	0.20	0/18
GFDLNSYGIS	VIYSDGRRTFYGDSVK	GHTAGTFDS	0.60 / 0.37 / 0.54 / 1.54 / 0.88 / 1.73	0.94	0/18
GFDLNSYGIS	VIYSDGRRTFYGDSVK	GVNAGTFDS	0.60 / -0.67 / 0.32 / -0.09 / -0.30 / 0.47	0.06	0/18
GFDLNSYGIS	VIYSDGRRTFYDDSVK	GAAAGTFDS	0.46 / 0.04 / -0.48 / -0.28 / 1.20 / nd	0.19	0/18
GFSLNSYGIS	VIYSDGRRTFYIDSVK	GREAGTFDT	1.37 / 0.52 / 0.01 / 0.86 / 0.15 / 0.54	0.57	0/18
HFNLNSYGIS	VIYSDGRRTFYIDSVK	GRQAGTFDS	nd / 1.62 / 2.83 / 2.39 / nd / nd	2.28	0/18
GFELNSYGIS	VIYSDGRRTFYQDDVK	GRTAGTFDS	0.99 / 1.12 / 0.42 / 0.28 / 1.57 / 0.97	0.89	0/18
GFSLNSYGIS	VIYSDGRRTFYSDSVK	GKNAGTFDS	0.59 / 0.35 / 0.40 / 0.07 / 0.46 / 0.40	0.38	1/18 (2.14)
GFELNSYGIS	VIYSDGKRTFYIDSVK	GRTAGTFDS	0.84 / 0.61 / 0.96 / 0.46 / 1.31 / 1.39	0.93	0/18
GFELNSYGIS	VIYADGRRTFYGDSVK	GNAAGTFDT	-0.94 / -0.62 / -1.04 / -1.24 / -0.38 / -0.61	-0.81	0/18
GFELNSYGIS	VIYSDGRRTFYGDPVK	GKTAGTFDS	1.33 / 1.50 / 1.20 / 1.44 / 2.55 / 1.47	1.58	0/18
GFDLNSYGIS	VIYSDGRRTFYGDSVK	GSAAGTFDD	1.07 / 1.03 / 0.71 / 0.54 / 0.93 / 0.74	0.84	0/18
GFPLNEYGIS	VIYSDGRRTFYGDSVK	GRHAGTFDS	1.46 / 0.83 / 1.17 / 0.28 / 1.04 / 1.50	1.05	0/18
GFSLNEYGIS	VIYSDGRRTFYGDWVK	GRNAGTFDS	0.11 / 2.36 / 0.95 / nd / nd / 1.02	1.11	0/18
GFELNSYGIS	VIYSDGKRTFYGDSVK	GREAGTFDS	0.74 / 0.55 / 0.41 / 0.48 / 1.23 / 1.02	0.74	0/18
GFDLNMYGIS	VIYSDGRRTFYGDSVK	GKTAGTFDS	0.68 / 0.15 / 0.14 / 0.53 / 0.41 / 0.15	0.34	1/18 (1.75)
GFSLNSYGIS	VIYSDGRRTAYGDKVK	GRAAGTFDS	0.85 / 2.89 / 1.60 / 1.65 / 1.57 / 2.27	1.81	0/18
GFELNMYGIS	VIYSDGRRTFYGDSVK	GQAAGTFDV	0.70 / 0.35 / 0.31 / 1.67 / 0.70 / 1.02	0.79	1/18 (3.37)
GFDLNSYGIS	VIYSDGRRTFYVDQVK	GRTAGTFDS	2.11 / 0.52 / nd / 1.78 / 2.26 / 0.92	1.52	0/18
GFELNEYGIS	VIYSDGRRTFYHDSVK	GRAAGTFDS	0.35 / 0.30 / 0.38 / 0.31 / 0.18 / 0.63	0.36	0/18
GFKLNSYGIS	VIYSDGRRTFYGDNVK	GRTAGTFDS	1.90 / nd / 0.54 / 0.76 / 1.84 / 1.84	1.38	0/18
GFDLNSYGIS	VIYSDGRRTFYSDSVK	GNAAGTFDS	0.99 / 0.59 / 0.37 / 0.58 / 0.62 / 0.73	0.65	1/18 (2.77)
GFELNSYGIS	VIYADGRRTFYGDSVK	GRTAGTFDT	-0.60 / -0.56 / -0.41 / -0.81 / -0.63 / -0.87	-0.65	0/18
KFSLNSYGIS	VIYADGRRTFYGDSVK	GEAAGTFDS	1.27 / 1.00 / 1.12 / 0.62 / 0.70 / 1.11	0.97	0/18
GFNLNSYGIS	VIYSDGRRTFYGDSVK	GEAAGTFDT	0.27 / 0.96 / 1.04 / 0.41 / 1.65 / 0.78	0.85	0/18
GFGLNEYGIS	VIYSDGRRTFYGDSVK	GHAAGTFDS	1.03 / 0.19 / 0.48 / 0.23 / 0.10 / 0.39	0.40	0/18
GFSLNSYGIS	VIYSDGRRTFYADNVK	GRMAGTFDS	0.74 / 0.60 / 0.37 / 0.13 / 0.44 / 0.39	0.45	0/18
GFTLESYGIS	VIYADGRRTFYGDSVK	GQAAGTFDA	0.57 / 0.24 / 0.63 / 0.74 / 0.95 / 0.69	0.64	1/18 (1.34)
GFSLNEYGIS	VIYSDGRRTFYGDQVK	GRNAGTFDS	0.50 / 0.50 / 0.31 / -0.10 / 0.32 / 0.54	0.35	0/18
GFDLNSYGIS	VIYSDGRRTFYSDSVK	GTAAGTFDS	0.06 / -0.10 / 0.37 / 0.02 / 0.69 / 1.06	0.35	0/18
GFSLNDYGIS	VIYSDGRRTFYGDSVK	GRQAGTFDT	0.16 / -0.04 / 0.37 / -0.28 / 0.01 / 0.06	0.05	2/18 (2.54)